# Source: patent US20150099800A1, “NOVEL LIPASE INHIBITORS, REPORTER SUBSTRATES AND USES THEREOF” (Northeastern University, priority 2012, published 2015)
# Amino acid sequences for entries named in this document (tags omitted).
# UniProt Q99685, whole entry: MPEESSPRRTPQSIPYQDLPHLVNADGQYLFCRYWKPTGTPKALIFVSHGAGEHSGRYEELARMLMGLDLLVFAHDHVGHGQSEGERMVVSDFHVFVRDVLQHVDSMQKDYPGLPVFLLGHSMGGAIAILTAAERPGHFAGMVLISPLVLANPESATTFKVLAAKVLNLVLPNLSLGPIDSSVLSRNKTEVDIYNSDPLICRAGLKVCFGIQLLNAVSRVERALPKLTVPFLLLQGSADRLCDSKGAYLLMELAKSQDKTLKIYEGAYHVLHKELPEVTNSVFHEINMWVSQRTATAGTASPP
# UniProt P20272, whole entry: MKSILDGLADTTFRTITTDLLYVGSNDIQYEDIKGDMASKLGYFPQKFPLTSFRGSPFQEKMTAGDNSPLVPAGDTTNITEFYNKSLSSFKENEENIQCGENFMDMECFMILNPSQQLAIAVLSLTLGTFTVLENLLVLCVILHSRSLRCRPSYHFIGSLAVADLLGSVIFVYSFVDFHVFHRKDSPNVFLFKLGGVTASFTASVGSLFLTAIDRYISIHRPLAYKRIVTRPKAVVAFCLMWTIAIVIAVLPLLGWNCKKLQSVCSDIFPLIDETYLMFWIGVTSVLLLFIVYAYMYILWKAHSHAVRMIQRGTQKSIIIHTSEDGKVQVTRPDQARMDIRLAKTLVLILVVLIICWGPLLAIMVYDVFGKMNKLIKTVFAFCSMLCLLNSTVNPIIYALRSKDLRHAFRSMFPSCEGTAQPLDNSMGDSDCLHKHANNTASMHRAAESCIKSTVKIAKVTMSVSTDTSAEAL
# pIC50: −log10 of the molar value. Where two headings read alike, the source gives them in different places.
# Assays:
# MAGL [1] = target: T1, MAGL (Homo sapiens, UniProt Q99685); experiment: hMAGL coumarin substrate fluorescence assay; assay type: biochemical; design: The N-terminal his-tagged full length human monoacylglycerol lipase used; His (N); made in house; host or cells: E. coli
# MAGL [2] = target: T1, MAGL; details: cited from earlier work
# [3] = target: T2, CB1 (rat brain preparation) (Rattus norvegicus, UniProt P20272); details: read-out: literature IC50 for rCB1; literature report; cited from earlier work
# [4] = target: T2, CB1 (rat brain preparation); details: read-out: apparent IC50, cannabinoid receptor binding; compared with literature rCB1
compound,measurement,setting,value
"CCCCCCCCCCCCCCCCS(=O)(=O)F [n-C16H33SO2F, Palmitylsulfonyl fluoride]",hMAGL inhibition at 10 μM (%),MAGL [1],82%
same,inhibition of MAGL activity reported in the literature,MAGL [2],poor inhibitors
same,pIC50,[3],6.28
same,pIC50,[4],6.36
